This is an account of results in patent US20140363486A1, “METHODS FOR REDUCING OR ALTERING SCAR FORMATION” (Prelief, Inc., priority 2007, published 2014).

A short description of this data set: Solubility and natural pH of CGP. Format: physicochemical.

For the substance calcium glycerophosphate [CGP], the “natural pH” value is given as “about 8.4”. The solubility in alcohol result (alcohol) is on record as “insoluble”. In addition, the solubility in water entry (water) is “only sparingly soluble”.
